The list shows a part of the results, in another mix than the full data. Some salts or complexes appear as unconnected parts, following the source record. The source made the active and inactive calls.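 The calls were made as follows: active = Every replicate reaches about 75%, or at least half do and their mean reaches it too (limit read from the data); inconclusive = At least half of replicates reach the limit but their mean does not; inactive = Under half of replicates reach the limit.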

The nature of the test: INS-1E beta cell survival under cytokines – luminescence, primary screen (AID 435005).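 Also: 0% = cytokine-treated negative control wells and 100% = positive control rescue; higher means more ATP so stronger rescue from cytokine killing.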 The settings on record: INS-1E cytokine-induced death, ATP luminescence, 48 h; hits give high values; percent of positive-control rescue, neutral wells zero; concentration not given here.
Regarding `O=[N+]([O-])c1cc([N+](=O)[O-])c(Nc2nnnn2CCO)c([N+](=O)[O-])c1`, the protection from apoptosis is inactive: -9.61%.
Consider `CCOC(=O)C(CC)C1=NC(C)(C)Cc2ccccc21.O=[N+]([O-])c1cc([N+](=O)[O-])c(O)c([N+](=O)[O-])c1` (configuration not stated), for which the protection from apoptosis is inactive: -7.69%.
As to `COc1ccccc1CNC(=O)COC(=O)C(O)(c1ccccc1)c1ccccc1`, the protection from apoptosis was inactive: 3.23%.
As to `O=[N+]([O-])c1cc([N+](=O)[O-])c(-c2cnn(-c3ccccc3)c2)c([N+](=O)[O-])c1`, the protection from apoptosis was active: 100%.
Take `O=[As](O)(c1ccccc1Br)c1ccccc1Br`: the protection from apoptosis is inactive: -4.81%.
To `CC1(CBr)Cn2c(nc3ccccc3c2=O)S1` (configuration not stated) belongs inactive: -20.6%.
To `Cc1nc2ccc3ccccc3c2s1.O=[N+]([O-])c1cc([N+](=O)[O-])c(O)c([N+](=O)[O-])c1` belongs inactive: -3.74%.
For the compound `CN(C(=O)Cc1ccc(Cl)c(Cl)c1)[C@@H]1CCCC[C@H]1N1CCCC1`, the protection from apoptosis was inactive: -8.38%.
For `CCOP(=O)(Nc1ccc(C)cn1)OCC`, the protection from apoptosis was inactive: 0.177%.
Consider `CCC1=CC2Cc3nc4ccc(Cl)cc4c(N)c3C(C1)C2` (configuration not stated), for which the protection from apoptosis is inactive: 14%.
`O=[N+]([O-])c1cc([N+](=O)[O-])c(-n2nnc3ccccc32)c([N+](=O)[O-])c1`: the protection from apoptosis was inactive: -10.4%.
To `Clc1n[nH]nc1-c1nn[nH][15n]1` belongs inactive: 1.63%; to `CC(C)(C)C(=O)NC(Sc1ncccn1)C(Cl)(Cl)Cl` (configuration not stated), inactive: -2.2%.
Take `CP(=O)(Nc1ccc2c(c1)OCCO2)Oc1ccccc1` (configuration not stated): the protection from apoptosis is inactive: -2.1%.
On to `Cc1ccccc1NP(C)(=O)Nc1ccccc1C`, for which the protection from apoptosis was inactive: -4.91%.
For the compound `CP(=O)(Nc1ccc(SC(F)(F)F)cc1)Oc1ccc(F)cc1` (configuration not stated), the protection from apoptosis is inactive: -7.32%.
Take `O=P(Nc1nccs1)(c1ccccc1)c1ccccc1`: the protection from apoptosis is inactive: -2.83%.
On to `CC(C)C(=O)NC(Sc1ccccc1)C(Cl)(Cl)Cl` (configuration not stated), for which the protection from apoptosis was inactive: -12.3%.
For the compound `CCOP(C)(=S)SCC(=O)NC(C)(CC)C(=O)O` (configuration not stated), the protection from apoptosis is inactive: 0.397%.
Consider `c1nnnn1CCn1cnnn1`, for which the protection from apoptosis was inactive: -5.66%.
Take `O=[N+]([O-])c1ccc(OP2(=O)COCCO2)cc1` (configuration not stated): the protection from apoptosis was inactive: 3.55%.
As to `CC(=O)NC(SC(=S)N(C)C)C(Cl)(Cl)Cl` (configuration not stated), the protection from apoptosis was inactive: 2.27%.
On to `O=[N+]([O-])c1ncn(CCn2cnc([N+](=O)[O-])n2)n1`, for which the protection from apoptosis was inactive: -5.9%.
Regarding `O=[As](O)(c1ccccc1)c1ccc(O)cc1`, the protection from apoptosis was inactive: -2.23%.
Consider `O=[N+]([O-])c1cc([N+](=O)[O-])c(NCC2CCS(=O)(=O)C2)c([N+](=O)[O-])c1` (configuration not stated), for which the protection from apoptosis was inactive: -0.145%.
`C(Cc1nn[nH]n1)Cc1nn[nH]n1`: the protection from apoptosis is inactive: -2.84%.
Consider `Nc1ccc([As](=O)(O)c2ccc([N+](=O)[O-])cc2)cc1`, for which the protection from apoptosis is inactive: 1.7%.
On to `O=C(OC1CN2CCC1CC2)c1cccc(Cl)c1` (configuration not stated), for which the protection from apoptosis is inactive: -5.33%.
With `COc1ccc(OP(C)(=O)Nc2cccc(Br)c2)cc1` (configuration not stated), the protection from apoptosis is inactive: -0.396%.
Turning to `CN(C)C1(CNC(=O)c2ccc(Cl)c(S(N)(=O)=O)c2)CCCCC1`, the protection from apoptosis was inactive: -5.14%.
To `O=P(Nc1ccccn1)(c1ccc(Br)cc1)c1ccc(Br)cc1` belongs inactive: -2.92%.
Turning to `O=P(Nc1nc2ccccc2s1)(c1ccccc1)c1ccccc1`, the protection from apoptosis was inactive: -3.65%.
For the compound `CN(C)CCOC(=O)C(O)(c1ccccc1)C1CCCCC1` (configuration not stated), the protection from apoptosis is inactive: -5.72%.
To `C[C@H]1OP(=O)(Oc2ccccc2)[C@H](O)[C@H](O)[C@H]1N=[N+]=[N-]` (some centres not stated) belongs inactive: 0.522%; to `COC(=O)c1cc2c(s1)N=C(c1ccccc1)N(C)P2(=O)N1CCOCC1` (configuration not stated), inactive: -4.89%; to `CC(=O)NC(SC(=S)N(CC(C)C)CC(C)C)C(Cl)(Cl)Cl` (configuration not stated), inactive: 34.5%.
Regarding `Cc1ccc(OP(=O)(Nc2ccccn2)Oc2ccc(C)cc2)cc1`, the protection from apoptosis was inactive: 3.2%.
`O=C(OC1CN2CCC1CC2)c1ccccc1` (configuration not stated): the protection from apoptosis was inactive: -1.45%.
With `CCC(=O)N1C2C3N(C(=O)CC)C1C1N(C(=O)CC)C(C(N1C(=O)CC)N3C(=O)CC)N2C(=O)CC`, the protection from apoptosis was inactive: 1.07%.
For the compound `CCN(CC)CCCOC(=O)C(O)(c1ccccc1)C1CCCCC1` (configuration not stated), the protection from apoptosis is inactive: 1.22%.
The figure for `CP(=O)(Nc1ccccc1)Oc1ccc(F)cc1` (configuration not stated) is inactive: -1.18%; for `CC(NC(=O)COC(=O)C(O)(c1ccccc1)c1ccccc1)c1ccccc1` (configuration not stated) it is inactive: -2.78%; for `Cc1ccccc1OP(=O)(Nc1ccccn1)Oc1ccccc1C` it is inactive: 4.74%.
On to `O=[N+]([O-])c1cc([N+](=O)[O-])c(OC2CCCCC2O)c([N+](=O)[O-])c1` (configuration not stated), for which the protection from apoptosis was inactive: 6.85%.
For the compound `CCCCCOc1ccc(NP(C)(=O)Oc2ccc(Cl)cc2Cl)cc1` (configuration not stated), the protection from apoptosis is inactive: -3.99%.
Consider `CN(C)C(=O)Oc1noc2ccccc12`, for which the protection from apoptosis is inactive: -6.3%.
Take `O=C(NC1CCS(=O)(=O)C1)NP(=S)(Oc1ccccc1)Oc1ccccc1` (configuration not stated): the protection from apoptosis was inactive: -0.394%.
On to `CCNC(=S)/N=C(\N)N[N+](=O)[O-]`, for which the protection from apoptosis is inactive: -5.49%.
Take `c1ccc(-c2nn[nH]n2)c(-c2nn[nH]n2)c1`: the protection from apoptosis was inactive: -5.6%.
As for `CCOC(=O)NC(Sc1ccccc1)C(Cl)(Cl)Cl` (configuration not stated), the protection from apoptosis was inactive: -19.1%.
As to `CCOC(=O)c1ccc(NP(C)(=O)Oc2ccc(F)cc2)cc1` (configuration not stated), the protection from apoptosis was inactive: -11.1%.
As for `COc1ccc(OP(C)(=O)Nc2ccc(SC(F)(F)F)cc2)cc1` (configuration not stated), the protection from apoptosis was inactive: -3.43%.
As for `CC(=O)c1ccc(N2CC2c2ccncc2)cc1` (configuration not stated), the protection from apoptosis is inactive: 0.749%.
Regarding `C[C@H]1OP(=O)(Oc2ccccc2)C[C@@H]2O[C@@H]21` (some centres not stated), the protection from apoptosis was inactive: 1.66%.
As for `C[C@@H]1C=CCP(=O)(Oc2ccccc2)O1` (some centres not stated), the protection from apoptosis was inactive: -6.8%.
The figure for `CC(=O)Nc1ccc([As](=O)(O)O)c(O)c1` is inactive: 4.25%; for `COc1ccc2c(c1O)-c1c(O)c(OC)cc3c1[C@H](C2)[N+](C)(C)CC3.O=[N+]([O-])c1cc([N+](=O)[O-])c([O-])c([N+](=O)[O-])c1[O-]` it is inactive: -7.1%.
As to `CC(=O)Nc1ccc(Oc2c([N+](=O)[O-])cc([N+](=O)[O-])cc2[N+](=O)[O-])cc1`, the protection from apoptosis was inactive: -5.81%.
For `O=P1(Nc2nc3ccc(Cl)cc3s2)COc2ccccc2O1` (configuration not stated), the protection from apoptosis was inactive: -7.52%.
With `CP(=O)(Nc1ccccc1F)Oc1ccccc1` (configuration not stated), the protection from apoptosis was inactive: -7.15%.
For the compound `CC(C)(C)C(=O)NC(Sc1ccccc1)C(Cl)(Cl)Cl` (configuration not stated), the protection from apoptosis was inactive: -5.41%.
For the compound `CC(C)c1ccc(OP(C)(=O)Nc2ccc(SC(F)(F)F)cc2)cc1` (configuration not stated), the protection from apoptosis is inactive: -5.67%.
As to `Nc1cc(N)c2nonc2c1[N+](=O)[O-]`, the protection from apoptosis was inactive: -3.92%.
On to `Cc1c(NP(C)(=O)Oc2ccc(C(C)C)cc2)c(=O)n(-c2ccccc2)n1C` (configuration not stated), for which the protection from apoptosis was inactive: 1.2%.
As to `O=[N+]([O-])c1cc([N+](=O)[O-])c(Nc2ccccn2)c([N+](=O)[O-])c1`, the protection from apoptosis was active: 80.1%.
For the compound `CC(C)CC(=O)NC(Sc1ccc(Cl)cc1)C(Cl)(Cl)Cl` (configuration not stated), the protection from apoptosis was inactive: -8.89%.
`Oc1ccccc1CNc1ccccn1`: the protection from apoptosis was inactive: -2.19%.
Regarding `O=C(NC(Sc1ccncn1)C(Cl)(Cl)Cl)c1ccccc1` (configuration not stated), the protection from apoptosis was inactive: 0.163%.
Take `Cc1c2non([O-])c-2c(C)[n+](=O)[n+]1[O-]`: the protection from apoptosis is inactive: -2.77%.
As for `CP(=O)(Nc1ccccn1)Oc1ccccc1` (configuration not stated), the protection from apoptosis was inactive: -8.11%.
Regarding `COc1ccccc1OP(C)(=O)Nc1ccc(C)cc1C` (configuration not stated), the protection from apoptosis is inactive: -4.05%.
Regarding `CCc1ccc(OP(C)(=O)O)cc1`, the protection from apoptosis is inactive: -1.45%.
In the case of `NC(=O)c1cc([N+](=O)[O-])cc([N+](=O)[O-])c1N`, the protection from apoptosis is inactive: -3.48%.
For `CN(C(=O)Cc1ccc(Cl)c(Cl)c1)[C@H]1CCCC[C@H]1N1CCCC1`, the protection from apoptosis was inactive: -1.23%.
Turning to `COc1ccccc1OP(C)(=O)Nc1ccc(Br)cc1` (configuration not stated), the protection from apoptosis was inactive: -11.8%.
For the compound `Cc1ccc(N/C(=N/P(=O)(N2CCOCC2)N2CCOCC2)N2CCOCC2)cc1`, the protection from apoptosis was inactive: -1.18%.
As for `COc1ccccc1OP(=O)(Nc1ccc(C)cn1)Oc1ccccc1OC`, the protection from apoptosis was inactive: -6.05%.
`COc1ccc(OP(C)(=O)Nc2ccccn2)cc1` (configuration not stated): the protection from apoptosis was inactive: -13.8%.
The figure for `CN1CCCC(OC(=O)C(c2ccccc2)c2ccccc2)C1` (configuration not stated) is inactive: 1.93%; for `Clc1ccc(Cl)c(NC2=NCC(CBr)S2)c1` (configuration not stated) it is inactive: -2.63%.
On to `Cc1nc2ccc3ccccc3c2o1.O=[N+]([O-])c1cc([N+](=O)[O-])c(O)c([N+](=O)[O-])c1`, for which the protection from apoptosis was inactive: -10.6%.
For the compound `O=[N+]([O-])c1cc([N+](=O)[O-])c(CCN2CCOCC2)c([N+](=O)[O-])c1`, the protection from apoptosis is inactive: 7.85%.
The figure for `CCN(N=Nc1nonc1N)c1nonc1N` is inactive: -3.15%; for `Nc1cccc2ccc([As](=O)(O)O)cc12` it is inactive: -2.78%.
To `CP(=O)(Nc1ccc(Cl)cc1Cl)Oc1ccccc1` (configuration not stated) belongs inactive: -3.74%; to `CP(=O)(OCCOc1ccccc1)OCCOc1ccccc1`, inactive: -9.33%; to `CC(=O)Nc1ccc([As](=O)(O)O)cc1`, inactive: -3.56%.
For `O=C(O)c1ccccc1[As](=O)(O)O`, the protection from apoptosis was inactive: -0.00228%.
Regarding `O=P(Nc1nc2ccc(Cl)cc2s1)(c1ccccc1)c1ccccc1`, the protection from apoptosis was inactive: 25.1%.
On to `Cc1cc(C)cc(OP(C)(=O)Nc2cccc(C(F)(F)F)c2)c1` (configuration not stated), for which the protection from apoptosis was inactive: -3.13%.
For the compound `Cc1cc(SC(NC(=O)c2ccc(F)cc2)C(Cl)(Cl)Cl)ncn1` (configuration not stated), the protection from apoptosis was inactive: -6.97%.
Regarding `CCOP(=O)(Nc1ccccc1)OCC`, the protection from apoptosis was inactive: -9.24%.
Turning to `COc1ccccc1OP(C)(=O)Nc1ccc(C)c(C)c1` (configuration not stated), the protection from apoptosis is inactive: -8.03%.
In the case of `CN(C(=O)Cc1ccc(Cl)c(Cl)c1)[C@H]1CCCC[C@@H]1N1CCCC1`, the protection from apoptosis is inactive: -2.57%.
The figure for `Cc1ccc(NP(=O)(Oc2ccccc2F)Oc2ccccc2F)nc1` is inactive: -6.02%.
Consider `COc1ccc(OP(C)(=O)Nc2ccccc2Br)cc1` (configuration not stated), for which the protection from apoptosis is inactive: -6.08%.
As to `CC(C)(C)C(=O)NC(Sc1ccncn1)C(Cl)(Cl)Cl` (configuration not stated), the protection from apoptosis was inactive: -14.9%.

For the origin of these results see PubChem BioAssay AID435005 (Broad Institute, 2010).
